# Values of other authors as cited in US11608532B2, “Precision medicine for treating and preventing suicidality” (Indiana University Research and Technology Corporation, priority 2017, dated 2023).
# Where two headings read alike, the source gives them in different places.
# System: individual top biomarkers for suicidality
# Conditions: for HTR2A modulated by drug in opposite direction to suicide: DE/2
# [1] = A. Top Universal Biomarkers, direction of change in suicidality (I)
# [2] = C. Top Biomarkers in Females, direction of change in suicidality I
# [3] = D. Top Biomarkers in Bipolar Disorder, direction of change in suicidality (I)
# [4] = F. Top Biomarkers in Males with Bipolar Disorder, direction of change in suicidality (I)
SMILES,HTR2A modulated by drug in opposite direction to suicide [1],HTR2A modulated by drug in opposite direction to suicide [2],HTR2A modulated by drug in opposite direction to suicide [3],HTR2A modulated by drug in opposite direction to suicide [4],"SLC6A4 modulated by drug in opposite direction to suicide (D. Top Biomarkers in Bipolar Disorder, direction of change in suicidality (D), DE/1)"
O=C1CC2(CCCC2)CC(=O)N1CCCCN1CCN(c2ncccn2)CC1 [Buspirone],"Buspirone,","Buspirone,","Buspirone,","Buspirone,",
CNCCC(Oc1ccc(C(F)(F)F)cc1)c1ccccc1 (stereo not drawn) [Fluoxetine],,,,,Fluoxetine
Cc1nc2n(c(=O)c1CCN1CCC(c3noc4cc(F)ccc34)CC1)CCCC2 [Risperidone],"Risperidone,","Risperidone,","Risperidone,","Risperidone,",
CN(C)CCC=C1c2ccccc2CCc2ccccc21 [amitriptyline],amitriptyline,amitriptyline,amitriptyline,amitriptyline,
"O=C(CCCN1CCC(O)(c2ccc(Cl)cc2)CC1)c1ccc(F)cc1 [haloperidol, reference compound]",Haloperidol,Haloperidol,Haloperidol,Haloperidol,
OCCOCCN1CCN(C2=Nc3ccccc3Sc3ccccc32)CC1 [quetiapine],"quetiapine,","quetiapine,","quetiapine,","quetiapine,",
